Experimental data published in patent publication US10364238B2, “N-((het) arylmethyl)-heteroaryl-carboxamides compounds as plasma kallikrein inhibitors” (KALVISTA PHARMACEUTICALS LIMITED, priority 2014, dated 2019).

The chains behind the UniProt entries cited, without tags or fusion partners. Residues count along the entry.
UniProt P03952, 20-390 partner: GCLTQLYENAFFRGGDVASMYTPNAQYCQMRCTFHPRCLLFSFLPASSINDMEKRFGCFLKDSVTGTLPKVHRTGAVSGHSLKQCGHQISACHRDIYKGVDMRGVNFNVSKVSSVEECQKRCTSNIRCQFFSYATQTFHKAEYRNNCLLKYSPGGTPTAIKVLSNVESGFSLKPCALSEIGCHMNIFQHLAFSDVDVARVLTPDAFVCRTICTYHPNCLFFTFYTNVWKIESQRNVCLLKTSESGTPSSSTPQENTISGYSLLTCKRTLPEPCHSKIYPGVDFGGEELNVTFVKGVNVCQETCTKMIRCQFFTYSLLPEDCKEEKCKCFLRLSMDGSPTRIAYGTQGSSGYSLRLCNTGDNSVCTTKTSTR
UniProt P03952, 391-638: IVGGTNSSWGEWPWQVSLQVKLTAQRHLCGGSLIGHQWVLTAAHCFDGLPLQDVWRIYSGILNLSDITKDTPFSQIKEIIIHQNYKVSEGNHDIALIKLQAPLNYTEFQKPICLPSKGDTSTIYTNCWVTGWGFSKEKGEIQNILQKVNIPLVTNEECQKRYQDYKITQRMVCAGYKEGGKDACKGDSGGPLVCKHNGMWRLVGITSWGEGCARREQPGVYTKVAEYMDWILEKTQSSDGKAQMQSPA
UniProt P06870, 25-262: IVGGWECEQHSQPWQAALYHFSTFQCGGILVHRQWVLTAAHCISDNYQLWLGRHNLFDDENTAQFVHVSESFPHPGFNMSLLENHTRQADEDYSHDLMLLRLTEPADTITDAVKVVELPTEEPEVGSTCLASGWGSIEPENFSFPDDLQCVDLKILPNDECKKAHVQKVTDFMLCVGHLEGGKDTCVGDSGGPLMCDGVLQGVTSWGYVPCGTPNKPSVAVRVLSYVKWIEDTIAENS

Experiments:
[1] = target: Human plasma kallikrein (Homo sapiens (Human), UniProt P03952); test: Determination of the IC50 for plasma kallikrein; type: biochemical; settings: 25° C., fluorogenic substrate H-DPro-Phe-Arg-AFC; read-out: IC50 (human PKaI)
[2] = target: Human KLK1 (Homo sapiens (Human), UniProt P06870); test: Determination of the IC50 for KLK1; type: biochemical

Question: Which results are given for `COCc1nn(Cc2ccc(Cn3ccccc3=O)cc2)cc1C(=O)NCc1c(Cl)ccc(OC)c1F` [Example 99, N-[(6-chloro-2-fluoro-3-methoxyphenyl)methyl]-3-(methoxymethyl)-1-({4-[(2-oxopyridin-1-yl)methyl]phenyl}methyl)pyrazole-4-carboxamide]?
Answer: IC50 [1]: 6.4 nM; IC50 [2]: > 10000 nM
